Drawing on patent US9399647B2, “Proteasome activity modulating compounds” (Proteostasis Therapeutics, Inc., priority 2012, dated 2016), this text covers IC50 for 1 compound.

Sequences of proteins named here, by UniProt entry; tags and fusion partners are left off. A change or cut given only in a name is not applied to a line headed by its entry.
UniProt P54578: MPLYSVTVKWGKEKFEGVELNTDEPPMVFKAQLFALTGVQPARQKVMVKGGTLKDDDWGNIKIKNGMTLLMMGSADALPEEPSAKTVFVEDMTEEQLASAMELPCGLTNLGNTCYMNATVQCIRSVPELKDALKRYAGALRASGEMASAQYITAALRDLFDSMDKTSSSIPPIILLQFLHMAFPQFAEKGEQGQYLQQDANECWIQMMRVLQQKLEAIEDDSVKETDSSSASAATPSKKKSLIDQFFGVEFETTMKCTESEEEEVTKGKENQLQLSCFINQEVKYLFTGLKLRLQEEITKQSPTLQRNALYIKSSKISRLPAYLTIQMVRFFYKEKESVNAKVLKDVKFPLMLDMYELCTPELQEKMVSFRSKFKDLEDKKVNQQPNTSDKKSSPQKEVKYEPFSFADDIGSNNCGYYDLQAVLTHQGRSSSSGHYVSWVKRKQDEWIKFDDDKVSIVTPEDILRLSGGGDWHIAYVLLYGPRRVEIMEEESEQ

The target of the assay is USP14 (Homo sapiens, UniProt P54578). Put plainly: USP14 inhibition assay. It is filed as biochemical. The text has this: The IC50 values in the Table below represent the average value from three experimental determinations.
These IC50 values represent the average value from three experimental determinations.

A word on the IC50: it is the concentration that inhibits the measured activity by half. The low end stands for inhibition by little substance, the high end for a need for much substance. With `Cc1cc(C(=O)CN2CCCC2)c(C)n1-c1ccc(F)cc1` [IU1, 1-(1-(4-fluorophenyl)-2,5-dimethyl-1H-pyrrol-3-yl)-2-(pyrrolidin-1-yl)ethanone, reference compound], it took 1.2 µM to reach half-maximal inhibition (IC50). This counts as single-digit micromolar.
